Experimental data published in patent US7098039B1, “Analysis of a sample to determine its characteristic cycle time” (The Victoria University of Manchester, priority 1998, dated 2006).

System: peptide sequence VCDWWGWGIC (mimic of the binding of drugs by the drug efflux protein P-glycoprotein)
Experiment: Quenching of the natural tryptophan fluorescence of peptide VCDWWGWGIC on drug binding (FIG. 7h titration)
Conditions: linear sequence or cyclised, result in words
Description: The system illustrated in FIG. 7 may be a drug binding to a protein or peptide comprising fluorescent amino acids at the site of binding.
The number in brackets, following each titration, is the relative intensity of the peak at 359.25 nm, indicating the degree of quenching.

COc1cc2c(c(OC)c1OC)-c1ccc(OC)c(=O)cc1[C@@H](NC(C)=O)CC2 [Colchicine]
natural tryptophan fluorescence of the peptide quenched by the drug: quenched
